Assay [1] concerns the target 5-hydroxytryptamine receptor 2A (Homo sapiens, UniProt P28223).
Assay [2] deals with 5-hydroxytryptamine receptor 2B (Homo sapiens, UniProt P41595).
In assay [3] the target is 5-hydroxytryptamine receptor 2C (Homo sapiens, UniProt P28335).

Amino acid sequences for entries named in this document (tags omitted). A change or cut given only in a name is not applied to a line headed by its entry.
UniProt P28223, whole entry: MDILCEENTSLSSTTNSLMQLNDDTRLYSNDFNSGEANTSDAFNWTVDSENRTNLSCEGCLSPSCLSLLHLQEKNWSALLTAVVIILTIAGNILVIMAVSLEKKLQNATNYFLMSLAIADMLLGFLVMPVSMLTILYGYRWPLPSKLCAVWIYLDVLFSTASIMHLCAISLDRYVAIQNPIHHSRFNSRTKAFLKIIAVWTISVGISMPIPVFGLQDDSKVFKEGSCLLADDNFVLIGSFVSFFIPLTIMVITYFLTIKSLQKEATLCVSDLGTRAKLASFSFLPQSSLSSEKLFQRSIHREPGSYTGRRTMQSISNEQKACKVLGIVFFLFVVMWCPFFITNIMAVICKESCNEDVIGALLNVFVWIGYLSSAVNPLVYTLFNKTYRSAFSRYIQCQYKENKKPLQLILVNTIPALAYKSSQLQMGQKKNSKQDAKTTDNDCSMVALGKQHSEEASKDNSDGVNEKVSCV
UniProt P41595, whole entry: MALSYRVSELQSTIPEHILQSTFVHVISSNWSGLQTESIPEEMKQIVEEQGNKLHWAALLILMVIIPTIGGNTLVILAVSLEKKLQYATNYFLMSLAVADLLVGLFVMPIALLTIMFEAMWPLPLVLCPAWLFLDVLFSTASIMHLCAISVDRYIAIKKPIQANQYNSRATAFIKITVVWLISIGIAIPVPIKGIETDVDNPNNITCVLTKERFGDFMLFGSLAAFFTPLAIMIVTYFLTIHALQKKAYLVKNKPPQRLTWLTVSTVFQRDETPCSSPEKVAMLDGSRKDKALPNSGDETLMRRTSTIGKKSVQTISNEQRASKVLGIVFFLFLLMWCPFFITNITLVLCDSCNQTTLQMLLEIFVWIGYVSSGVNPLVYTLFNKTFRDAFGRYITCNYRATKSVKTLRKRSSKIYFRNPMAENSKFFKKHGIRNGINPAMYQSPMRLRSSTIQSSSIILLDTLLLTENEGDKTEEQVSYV
UniProt P28335: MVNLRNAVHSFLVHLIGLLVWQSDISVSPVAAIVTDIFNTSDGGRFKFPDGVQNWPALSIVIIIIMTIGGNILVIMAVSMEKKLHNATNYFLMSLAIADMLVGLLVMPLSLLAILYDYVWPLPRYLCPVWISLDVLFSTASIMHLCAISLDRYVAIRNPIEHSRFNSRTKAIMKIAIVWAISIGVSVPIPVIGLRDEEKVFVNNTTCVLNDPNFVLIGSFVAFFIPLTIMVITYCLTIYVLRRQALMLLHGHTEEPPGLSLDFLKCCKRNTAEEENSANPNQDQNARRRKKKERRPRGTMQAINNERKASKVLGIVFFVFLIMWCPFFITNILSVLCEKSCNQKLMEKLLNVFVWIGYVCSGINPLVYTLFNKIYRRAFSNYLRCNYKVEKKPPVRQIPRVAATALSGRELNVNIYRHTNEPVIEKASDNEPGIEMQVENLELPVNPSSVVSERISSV

The record followed here is BindingDB's records for doi:10.1007/s00210-004-0951-4 (Vernalis Research, 2004).

As usually defined, the Ki is the dissociation constant of the complex between target and ligand, obtained from inhibition or displacement. A low value points to higher affinity. As for `CCCN1CCCC2Cc3[nH]ncc3CC21` (stereo unspecified) [NSC_55397], in assay [1], the Ki is 3310 nM.

As to `Clc1cccc(N2CCNCC2)c1` [mCPP], the Ki in assay [2] came out at 40.7 nM; in assay [1], 55 nM; in assay [3], 14.1 nM.

`CSc1ccc2c(c1)C(N1CCN(C)CC1)Cc1ccccc1S2` (stereo unspecified) [methanesulfonic acid;1-methyl-4-(3-methylsulfanyl-5,6-dihydrobenzo[b][1]benzothiepin-5-yl)piperazine]: in assay [2], the Ki was determined as 2.09 nM.

The compound `CC(N)Cc1c[nH]c2ccc(OCc3cccs3)cc12` (stereo unspecified) [NSC_5311036] returned a Ki in assay [2] of 46.8 nM.
